Results published in ChEMBL document CHEMBL3132754 (Medchemcomm, 2013).

Tested on: Liver microsome
Assay: Intrinsic clearance in human liver microsomes measured per gram of protein at 200 uM measured after 1 by LC/MS/MS method
Format: ADME

CLH: 24 µL/min
SMILES: CC(C)N(CCCNC(=O)Nc1ccc(C(C)(C)C)cc1)C[C@H]1O[C@@H](n2cnc3c(N)ncnc32)[C@H](O)[C@@H]1O
